Test results: US9226928B2, “Spirocyclic isoxazoline parasiticidal combinations” (Zoetis Services LLC, priority 2012, dated 2016)

Experiments:
A. maculatum ticks = experiment: Efficacy against ticks in dogs; conditions: same groups
[1] = tested on: D. immitis (L3 inoculation, adult worm recovery); experiment: Prevention of heartworm disease in dogs; conditions: in vivo
C. felis fleas = experiment: Efficacy against fleas in dogs; conditions: same groups

SMILES	% Efficacy (reduction in geometric mean live ticks versus placebo) (A. maculatum ticks; Day 7) [%]	% Efficacy (reduction in geometric mean live ticks versus placebo) (A. maculatum ticks; Day 14) [%]	% Efficacy (reduction in geometric mean live ticks versus placebo) (A. maculatum ticks; Day 21) [%]	% Efficacy (reduction in geometric mean live ticks versus placebo) (A. maculatum ticks; Day 28) [%]	% Efficacy (reduction in geometric mean live ticks versus placebo) (A. maculatum ticks; Day 35) [%]	efficacy in prevention of heartworm disease (reduction in adult D. immitis worm counts relative to placebo) [1]	% Efficacy (reduction in geometric mean live flea counts versus placebo) (C. felis fleas; Day 7) [%]	% Efficacy (reduction in geometric mean live flea counts versus placebo) (C. felis fleas; Day 14) [%]	% Efficacy (reduction in geometric mean live flea counts versus placebo) (C. felis fleas; Day 21) [%]	% Efficacy (reduction in geometric mean live flea counts versus placebo) (C. felis fleas; Day 28) [%]	% Efficacy (reduction in geometric mean live flea counts versus placebo) (C. felis fleas; Day 35) [%]
CS(=O)(=O)CC(=O)N1CC2(C1)OCc1cc(C3=NO[C@@](c4cc(Cl)c(F)c(Cl)c4)(C(F)(F)F)C3)ccc12 [Compound A, (S)-1-(5′-(5-(3,5-dichloro-4-fluorophenyl)-5-(trifluoromethyl)-4,5-dihydroisoxazol-3-yl)-3′H-spiro[azetidine-3,1′-isobenzofuran]-1-yl)-2-(methylsulfonyl)ethanone]	100	99.1	98.7	100	100	virtually no reduction	100	100	100	100	100
CO/N=C1\C[C@]2(C[C@@H]3C[C@@H](C/C=C(\C)C[C@@H](C)/C=C/C=C4\CO[C@@H]5[C@H](O)C(C)=C[C@@H](C(=O)O3)[C@]45O)O2)O[C@H](/C(C)=C/C(C)C)[C@H]1C [Moxidectin, moxidectin]	0	0	0	0	0		8.7	12.0	2.8	16.1	11.3
